By UniProt entry, the sequences of proteins in these tests, tags left out. Residues count along the entry.
UniProt P21802, 481-770 limits assumed: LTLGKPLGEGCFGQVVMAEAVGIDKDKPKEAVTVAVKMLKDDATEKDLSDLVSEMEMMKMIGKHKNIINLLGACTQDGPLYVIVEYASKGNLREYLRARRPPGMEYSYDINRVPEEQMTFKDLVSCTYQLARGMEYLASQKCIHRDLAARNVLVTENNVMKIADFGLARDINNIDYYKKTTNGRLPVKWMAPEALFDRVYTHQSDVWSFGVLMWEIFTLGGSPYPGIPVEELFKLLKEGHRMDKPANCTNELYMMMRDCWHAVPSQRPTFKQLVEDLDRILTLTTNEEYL
UniProt P11362, 478-767 limits assumed: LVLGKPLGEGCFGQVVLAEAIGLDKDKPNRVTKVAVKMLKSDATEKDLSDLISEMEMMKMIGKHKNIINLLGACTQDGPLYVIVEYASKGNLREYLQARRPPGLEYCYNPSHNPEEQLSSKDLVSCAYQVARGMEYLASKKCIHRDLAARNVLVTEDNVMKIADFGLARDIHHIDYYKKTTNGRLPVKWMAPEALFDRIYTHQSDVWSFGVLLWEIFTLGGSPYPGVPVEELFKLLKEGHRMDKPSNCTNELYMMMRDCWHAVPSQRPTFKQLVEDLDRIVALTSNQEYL
UniProt P22607, 472-761 limits assumed: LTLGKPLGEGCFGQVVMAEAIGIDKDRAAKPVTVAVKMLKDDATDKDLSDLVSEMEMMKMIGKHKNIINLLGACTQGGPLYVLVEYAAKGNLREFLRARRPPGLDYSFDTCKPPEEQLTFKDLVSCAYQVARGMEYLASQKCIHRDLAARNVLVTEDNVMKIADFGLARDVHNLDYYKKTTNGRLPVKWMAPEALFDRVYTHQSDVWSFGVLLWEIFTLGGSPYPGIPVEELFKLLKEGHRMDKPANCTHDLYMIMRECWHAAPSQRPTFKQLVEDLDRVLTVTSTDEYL
UniProt P22455, 467-755 limits assumed: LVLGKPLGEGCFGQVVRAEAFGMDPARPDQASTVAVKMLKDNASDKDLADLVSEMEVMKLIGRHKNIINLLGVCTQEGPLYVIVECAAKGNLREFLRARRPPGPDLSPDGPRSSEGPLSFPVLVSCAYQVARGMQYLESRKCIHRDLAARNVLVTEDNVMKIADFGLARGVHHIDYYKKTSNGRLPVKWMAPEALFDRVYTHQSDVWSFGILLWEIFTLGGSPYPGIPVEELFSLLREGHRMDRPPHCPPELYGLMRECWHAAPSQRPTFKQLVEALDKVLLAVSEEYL

In US8263074B2, “Fibroblast growth factor receptor-1 inhibitors and methods of treatment thereof” (ImClone LLC, priority 2003, dated 2012):

Legend:
Assay in all cases: FGFR kinase enzymatic assay (polyE-Y phosphorylation)
FGFR-2 = FGFR-2 (Homo sapiens, UniProt P21802); details: read-out: IC50, FGFR-2 kinase enzymatic activity; in vitro enzymatic assay
FGFR-1 = FGFR-1 (Homo sapiens, UniProt P11362); type: biochemical; details: read-out: IC50, FGFR-1 kinase enzymatic activity; in vitro enzymatic assay
FGFR-3 = FGFR-3 (Homo sapiens, UniProt P22607); type: biochemical; details: read-out: IC50, FGFR-3 kinase enzymatic activity; in vitro enzymatic assay
FGFR-4 = FGFR-4 (Homo sapiens, UniProt P22455); type: biochemical; details: read-out: IC50, FGFR-4 kinase enzymatic activity; in vitro enzymatic assay

Compound `COc1cc(OC)cc(-c2cc3cnc(N)nc3nc2NC(=O)NC(C)(C)C)c1` has an IC50 (FGFR-2) of 60 nM, an IC50 (FGFR-1) of 18 nM and an IC50 (FGFR-3) of 20 nM. The IC50 (FGFR-4) was 440 nM.
